Data published in US20140315834A1 (Medicon Pharmaceuticals, Inc., priority 2012, published 2014).

Amino acid sequences for entries named in this document (tags omitted).
UniProt P11712, whole entry, looked up: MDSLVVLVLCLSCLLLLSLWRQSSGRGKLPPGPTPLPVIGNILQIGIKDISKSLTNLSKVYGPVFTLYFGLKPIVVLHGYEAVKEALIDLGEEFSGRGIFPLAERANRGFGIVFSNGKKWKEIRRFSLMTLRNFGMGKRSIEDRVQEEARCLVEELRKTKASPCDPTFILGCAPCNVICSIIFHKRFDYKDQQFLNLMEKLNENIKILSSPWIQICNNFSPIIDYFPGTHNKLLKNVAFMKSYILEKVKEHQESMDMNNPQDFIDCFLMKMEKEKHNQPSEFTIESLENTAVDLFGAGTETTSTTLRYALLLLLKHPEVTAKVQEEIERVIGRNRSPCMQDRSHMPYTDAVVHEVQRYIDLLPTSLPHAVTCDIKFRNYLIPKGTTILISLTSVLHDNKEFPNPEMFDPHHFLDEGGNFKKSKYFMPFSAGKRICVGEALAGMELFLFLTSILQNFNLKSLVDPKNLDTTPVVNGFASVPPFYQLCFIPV
UniProt P08684, whole entry, looked up: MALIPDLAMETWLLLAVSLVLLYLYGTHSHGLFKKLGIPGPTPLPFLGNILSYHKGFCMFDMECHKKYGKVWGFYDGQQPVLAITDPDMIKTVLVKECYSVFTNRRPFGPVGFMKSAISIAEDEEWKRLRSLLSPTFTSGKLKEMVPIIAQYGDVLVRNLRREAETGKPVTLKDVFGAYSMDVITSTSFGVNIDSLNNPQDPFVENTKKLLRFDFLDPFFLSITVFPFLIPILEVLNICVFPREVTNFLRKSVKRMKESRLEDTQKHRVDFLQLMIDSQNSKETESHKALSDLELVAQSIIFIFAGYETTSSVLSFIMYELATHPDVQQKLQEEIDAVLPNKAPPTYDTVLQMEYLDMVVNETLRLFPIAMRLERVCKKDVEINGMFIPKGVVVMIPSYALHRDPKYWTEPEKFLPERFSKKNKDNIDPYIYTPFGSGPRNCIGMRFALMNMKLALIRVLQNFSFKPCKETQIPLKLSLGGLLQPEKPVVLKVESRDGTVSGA
UniProt P05177, whole entry, looked up: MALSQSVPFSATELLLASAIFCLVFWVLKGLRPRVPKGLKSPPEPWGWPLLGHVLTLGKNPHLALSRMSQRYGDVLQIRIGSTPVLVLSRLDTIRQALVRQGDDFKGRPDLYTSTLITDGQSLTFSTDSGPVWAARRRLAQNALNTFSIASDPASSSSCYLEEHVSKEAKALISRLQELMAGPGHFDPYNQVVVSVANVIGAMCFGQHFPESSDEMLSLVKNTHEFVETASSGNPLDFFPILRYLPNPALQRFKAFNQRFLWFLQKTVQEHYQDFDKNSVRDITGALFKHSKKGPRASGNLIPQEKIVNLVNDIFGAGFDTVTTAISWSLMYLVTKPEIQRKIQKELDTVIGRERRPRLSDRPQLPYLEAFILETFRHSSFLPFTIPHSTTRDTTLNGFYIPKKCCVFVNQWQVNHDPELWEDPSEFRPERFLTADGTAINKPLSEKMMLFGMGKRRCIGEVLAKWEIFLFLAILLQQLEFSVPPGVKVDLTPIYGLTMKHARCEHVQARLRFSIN

What was measured:
[1] = Hot-plate test, analgesic effect; assay type: in vivo, Lewis rats; details: Dose 120 mg/kg ip, 30 minutes prior to testing
[2] = Maximum tolerated doses and safety of amide compounds; details: nude mouse
[3] = test system: AGS; assay: AGS gastric sc xenograft; assay type: in vivo, mice; details: 200 mg/kg/d × 3 week, ip
[4] = Tail-bleed assay, bleeding time
[5] = target: CYP 2C9 (Homo sapiens, UniProt P11712); assay: In vitro metabolism by recombinant human CYP isoform 2C9; details: 37° C., NADPH-regenerating solution
[6] = test system: A549; assay: A549 lung ot xenograft; assay type: in vivo, mice; details: 200 mg/kg/sd × 6 week, ip
[7] = test system: platelets (human platelet-rich plasma); assay: Thromboelastography, maximum signal amplitude (MA); assay type: cell-based; details: n=2
[8] = target: CYP 3A4 (Homo sapiens, UniProt P08684); assay: In vitro metabolism by recombinant human CYP isoform 3A4; details: 37° C., NADPH-regenerating solution
[9] = test system: A549; assay: A549 lung sc xenograft; details: 200 mg/kg/d × 24 d, ip
[10] = Metabolism in liver microsomes
[11] = target: CYP 1A2 (Homo sapiens, UniProt P05177); assay: In vitro metabolism by recombinant human CYP isoform 1A2; details: 37° C., NADPH-regenerating solution
[12] = test system: HCT116; assay: HCT116 colon xenograft; details: 250 mg/kg/d × 12 d, ip
[13] = Pharmacokinetics of phosphosulindac amide, single oral dose; details: single oral dose 100 mg/kg PSA

Compound: CCOP(=O)(OCC)OCCCCNC(=O)CC1=C(C)/C(=C/c2ccc([S+](C)[O-])cc2)c2ccc(F)cc21 (stereo not drawn)
- Latency, sec Mean ± SEM [1]: 22.05 ± 0.55 s
- maximum tolerated dose (MTD) ([2]; ip, 3 week): 250 mg/kg/day
- maximum tolerated dose (MTD) ([2]; ip, 6 week): 200 mg/kg/day
- maximum tolerated dose (MTD) ([2]; wt, po, 1 week): >500 mg/kg/day
- Reduction [3]: 67%
- Bleeding time ([4]; 150 mg/kg orally, 1 hour after administration): 91 ± 6 s
- prolongation of the bleeding time ([4]; treated mice): no prolongation of the bleeding time
- oxidation by CYP 2C9 [5]: minimally active
- Reduction [6]: 77%
- effect on clots from platelet poor plasma (PPP) or purified fibrinogen [7]: no effect
- oxidation by CYP 3A4 [8]: minimally active
- Reduction [9]: 88%
- oxidation by liver microsomes [10]: oxidized to 3-OH-PSA and 5-OH-PSA
- oxidation by CYP 1A2 [11]: minimally active
- Reduction [12]: 23%
- AUC0-24h [13]: 54.04 µM·h
- Cmax [13]: 24 µM
- Tmax [13]: 15 min
